According to ChEMBL document CHEMBL4342488, “Structure-Activity Relationship Study of Covalent Pan-phosphatidylinositol 5-Phosphate 4-Kinase Inhibitors” (ACS Med Chem Lett, 2020):

Legend:
[1] = biological target: T1, Phosphatidylinositol 5-phosphate 4-kinase type-2 alpha (Homo sapiens, UniProt P48426); experiment: Inhibition of PI5P4Kalpha (unknown origin) incubated for 15 mins in presence of ATP by ADP-Glo assay
T1 sequence (P48426 whole entry): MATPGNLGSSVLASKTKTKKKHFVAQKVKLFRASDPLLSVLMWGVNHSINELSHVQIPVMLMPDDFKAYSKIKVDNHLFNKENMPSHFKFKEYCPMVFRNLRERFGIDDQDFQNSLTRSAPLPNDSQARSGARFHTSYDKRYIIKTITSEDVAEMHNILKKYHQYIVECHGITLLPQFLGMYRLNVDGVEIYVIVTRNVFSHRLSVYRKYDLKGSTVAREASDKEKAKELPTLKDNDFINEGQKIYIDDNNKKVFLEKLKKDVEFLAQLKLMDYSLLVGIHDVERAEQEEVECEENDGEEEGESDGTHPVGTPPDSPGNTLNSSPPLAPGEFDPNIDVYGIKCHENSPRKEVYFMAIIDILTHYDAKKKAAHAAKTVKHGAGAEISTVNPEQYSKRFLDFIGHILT

[2] = biological target: T2, Phosphatidylinositol 5-phosphate 4-kinase type-2 beta (Homo sapiens, UniProt P78356); experiment: Inhibition of PI5P4Kbeta (unknown origin) incubated for 15 mins in presence of ATP by ADP-Glo assay
T2 sequence (P78356 whole entry): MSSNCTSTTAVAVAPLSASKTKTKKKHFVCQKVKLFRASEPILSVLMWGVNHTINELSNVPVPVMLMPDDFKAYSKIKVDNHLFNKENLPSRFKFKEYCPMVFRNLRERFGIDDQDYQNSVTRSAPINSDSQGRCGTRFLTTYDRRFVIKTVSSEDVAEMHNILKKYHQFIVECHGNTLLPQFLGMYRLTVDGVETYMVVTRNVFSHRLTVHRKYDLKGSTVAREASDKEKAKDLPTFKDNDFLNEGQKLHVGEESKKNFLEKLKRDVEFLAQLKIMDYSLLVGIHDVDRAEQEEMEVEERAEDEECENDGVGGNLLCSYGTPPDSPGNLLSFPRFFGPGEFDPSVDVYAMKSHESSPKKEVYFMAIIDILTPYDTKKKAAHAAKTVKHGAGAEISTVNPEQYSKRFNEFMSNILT

Compound: CN(C)C/C=C/C(=O)Nc1ccc(C(=O)Nc2cccc(Nc3cc(-c4c[nH]c5ccccc45)ncn3)c2)cc1
- IC50 [1]: 0.95 µM
- IC50 [2]: 5.9 µM
